Laboratory results taken from patent US20190276833A1, “CANCER TREATMENT BY GLYCEROL-3-PHOSPHATE DEHYDROGENASE 1 INHIBITION” (Deutsches Krebsforschungszentrum, priority 2016, published 2019).

Tested on: GPD1
Assay: Inducible knockdown of GPD1 in primary brain tumors, survival study
Type: in vivo, mouse
Conditions: primary brain tumors induced at birth, miRNA expression induced by Tamoxifen QDx10 at four weeks, versus WT tumor
Protocol: Survival study of tumor-bearing mice w/o GPD1-KD. The tumors were induced at birth. At the age of four weeks tamoxifen was injected for ten days to permanently activate the GPD1 miRNA and the symptom free time was measured.
Animals with existing primary brain tumors were treated with Tamoxifen (QDx10) to induce the expression of a miRNA against GPD1.

B1: miRNA against GPD1: miRNA against GPD1, expression induced by Tamoxifen in tumor-bearing mice; preferably nucleotide sequence of SEQ ID NO:1 (nucleic acid)
chain: GAAAGTTGGGTGTCCTGCATCAGGTTTTGGCCACTGACTGACCTGATGCACACCCAACTTT
modifications: MiRNA sequence for GPD1- knockdown
With B1 as the molecule, how does the “survival (symptom free time) of tumor-bearing mice with GPD1 knockdown” value read?
The value was “significant increase in survival”.

And the “survival (symptom free time) of tumor-bearing mice with GPD1 knockdown” value (listed as GPD1 miRNA)?
The value was “survived significantly longer”.
